Biological target: T1, histamine-H2 receptors (isolated atrium) (Cavia porcellus, UniProt P47747)
T1 construct: in vitro on the isolated atrium of guinea pigs; from tissue; host or cells: isolated guinea pig atrium
Assay: H2-antagonistic activity, pA2-values in vitro on the isolated atrium of guinea pigs
Type: cell-based
Details: isolated guinea pig atrium, H2 antagonism
Excerpt: An accepted method for determining H2-antagonistic activity is to determine the pA2-values in vitro on the isolated atrium of guinea pigs (cf. Ariens, Molecular Pharmacology, Vol. 1, Academic Press, New York, 1964).

The chains behind the UniProt entries cited, without tags or fusion partners.
UniProt P47747, whole entry: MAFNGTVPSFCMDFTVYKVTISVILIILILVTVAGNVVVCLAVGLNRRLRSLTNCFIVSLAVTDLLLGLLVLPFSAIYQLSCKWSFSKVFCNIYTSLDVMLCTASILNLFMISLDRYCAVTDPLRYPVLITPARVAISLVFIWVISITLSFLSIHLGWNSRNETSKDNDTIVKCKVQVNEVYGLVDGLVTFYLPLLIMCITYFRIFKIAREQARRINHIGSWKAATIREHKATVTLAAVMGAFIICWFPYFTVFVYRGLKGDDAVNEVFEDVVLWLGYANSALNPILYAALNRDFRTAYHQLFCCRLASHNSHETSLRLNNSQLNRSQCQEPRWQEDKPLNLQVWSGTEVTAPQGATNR

Question: How did the Kb turn out when `CN/C(=N/CCSCc1nc[nH]c1C)NC#N` [Cimetidine, reference compound] was run?
Answer: Its Kb is 501 nM.

— US4596811A, “Heterocyclic compounds, a process for their production and medicaments containing these compounds” (Ludwig Heumann & Co., GmbH, priority 1982, dated 1986)
